The source of these data is patent publication US9801880B2, “Use of kinase inhibitors” (BerGenBio AS, priority 2013, dated 2017).

Assay [1] addresses T1, MerTK (Homo sapiens, UniProt Q12866).
T1 sequence (Q12866 21-999): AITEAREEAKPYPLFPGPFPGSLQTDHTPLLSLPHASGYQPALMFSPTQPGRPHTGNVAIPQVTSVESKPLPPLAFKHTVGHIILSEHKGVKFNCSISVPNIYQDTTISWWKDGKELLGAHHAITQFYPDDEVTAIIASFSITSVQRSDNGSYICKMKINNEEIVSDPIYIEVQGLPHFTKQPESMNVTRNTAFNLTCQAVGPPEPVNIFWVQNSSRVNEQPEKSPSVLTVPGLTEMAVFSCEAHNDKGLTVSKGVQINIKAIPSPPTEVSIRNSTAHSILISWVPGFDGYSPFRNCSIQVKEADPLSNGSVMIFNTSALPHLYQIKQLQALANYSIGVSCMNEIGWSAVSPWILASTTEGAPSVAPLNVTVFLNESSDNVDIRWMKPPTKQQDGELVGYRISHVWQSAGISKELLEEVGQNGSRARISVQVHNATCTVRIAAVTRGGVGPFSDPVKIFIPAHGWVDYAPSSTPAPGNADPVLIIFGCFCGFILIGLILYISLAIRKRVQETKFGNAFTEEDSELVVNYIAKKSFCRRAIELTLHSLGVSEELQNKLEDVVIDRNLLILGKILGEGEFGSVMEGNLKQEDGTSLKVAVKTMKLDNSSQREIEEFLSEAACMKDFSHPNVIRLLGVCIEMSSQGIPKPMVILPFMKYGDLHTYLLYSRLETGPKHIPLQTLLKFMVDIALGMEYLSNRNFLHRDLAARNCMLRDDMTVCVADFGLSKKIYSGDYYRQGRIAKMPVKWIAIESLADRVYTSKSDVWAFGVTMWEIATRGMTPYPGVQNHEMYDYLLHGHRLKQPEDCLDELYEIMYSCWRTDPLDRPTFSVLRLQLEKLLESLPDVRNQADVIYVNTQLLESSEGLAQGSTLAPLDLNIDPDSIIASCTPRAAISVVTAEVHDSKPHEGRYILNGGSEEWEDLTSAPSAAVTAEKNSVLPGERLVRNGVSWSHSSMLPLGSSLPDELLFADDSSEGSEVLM
As to the kind of experiment: KinomeScan competition binding assay. The arrangement: purchased DiscoveRx Corporation (KinomeScan service). An excerpt: (§1) Detailed assay methodologies can be found in the relevant references cited herein, or in the KinaseProfiler Service Assay Protocols (v54, 2011) available from EMD Millipore (www.emdmillipore.com), or from the KinomeScan website (www.kinomescan.com), as appropriate. (For a more detailed description of KINOMEscan's assay technology, see: Fabian et al. A small molecule-kinase interaction map for clinical kinase inhibitors. Nat. Biotechnol. 23, 329-336 (2005)). A summary is provided below.
KinomeScan™ assays (DiscoveRx Corporation, San Diego, Calif., USA) are active-site-directed competition binding assays. […] The amount of kinase captured in test versus control samples is determined by using a qPCR method that detects the associated DNA label on each kinase molecule. Dissociation constants (Kd) for test compound-kinase interactions are calculated by measuring the amount of kinase captured on the solid support as a function of the test compound concentration.

Assay [2] deals with T1, MerTK. The assay can be described thus: KinaseProfiler kinase activity assay. The format is biochemical. Also noted: purchased EMD Millipore Corp. (KinaseProfiler service). The following applies: ATP at Km.
From the text: as §1
KinaseProfiler™ assays (EMD Millipore Corp. Billerica, Mass., USA) are […] with purified or partially-purified human kinases. Most of the KinaseProfiler™ assays are conducted in 20 mM MOPS, 1 mM EDTA, 0.01% Brij-35, 5% Glycerol, 0.1% b-mercaptoethanol, 1 mg/mL BSA. The assay involves the transfer of ^32P from γ-^32P-ATP to the target peptide, followed by washing and trapping of the labeled peptide on a filter. The concentration of γ-^32P-ATP used was at the established Km for ATP.

Values joined by “and” are separate entries in the source; they are usually repeats but may differ in a detail not shown here. Equal values may be shown once. Where only a bound is given, the exact number is not on record here.

At MerTK [1], `Nc1nc(Nc2ccc3c(c2)CC[C@@H](N2CCCC2)CC3)nn1-c1cc2c(nn1)-c1ccccc1CCC2` [Compound A, 1-(6,7-dihydro-5H-benzo[6,7]cyclohepta[1,2-c]pyridazine-3-yl)-N^3-(7-(S)-(pyrrolidin-1-yl)-6,7,8,9-tetrahydro-5H-benzo[7]annulene-2-yl)-1H-1,2,4-triazole-3,5-diamine] showed a Kd of 100 nM. In addition, the IC50 at MerTK [2] was < 46 nM and 12.5 nM.

Broadly, the Kd is the free concentration of one partner at which half of the binding sites on the other are occupied at equilibrium, for simple one-to-one binding. In general, IC50 refers to the concentration that gives 50% inhibition. High values mean weaker potency, low ones greater potency.
